This passage reports IC50 results from ChEMBL document CHEMBL5375967 (J Med Chem, 2023).

This experiment deals with T1, Leukotriene A-4 hydrolase (Homo sapiens, UniProt P09960).
T1 sequence (P09960 whole entry): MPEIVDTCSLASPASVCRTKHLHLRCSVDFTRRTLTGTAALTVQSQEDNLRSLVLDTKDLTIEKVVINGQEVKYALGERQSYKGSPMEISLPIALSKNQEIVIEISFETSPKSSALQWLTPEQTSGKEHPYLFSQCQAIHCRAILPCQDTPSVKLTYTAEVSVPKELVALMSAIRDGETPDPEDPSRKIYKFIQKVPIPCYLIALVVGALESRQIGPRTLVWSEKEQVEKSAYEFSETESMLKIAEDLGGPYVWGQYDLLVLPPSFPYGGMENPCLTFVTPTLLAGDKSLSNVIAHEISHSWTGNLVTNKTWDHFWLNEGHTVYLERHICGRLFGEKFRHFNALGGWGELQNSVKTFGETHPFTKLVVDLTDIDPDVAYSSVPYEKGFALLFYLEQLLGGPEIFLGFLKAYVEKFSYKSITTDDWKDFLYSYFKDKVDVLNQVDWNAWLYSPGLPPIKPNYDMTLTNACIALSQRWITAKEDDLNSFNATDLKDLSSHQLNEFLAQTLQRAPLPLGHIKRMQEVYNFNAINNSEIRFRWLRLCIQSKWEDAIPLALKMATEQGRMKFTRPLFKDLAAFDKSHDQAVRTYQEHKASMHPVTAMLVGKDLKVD
Put plainly: Inhibition of LTA4H (unknown origin).

Each structure is given as a SMILES string.

As for `O=C(O)CCCN1CCC[C@H]1COc1ccc(Oc2ccc(Cl)cc2)cc1`, the IC50 (commonly the concentration that gives 50% inhibition) was 23 nM.
